The values below come from ChEMBL document CHEMBL1139181, “Design and synthesis of novel heterobiaryl amides as metabotropic glutamate receptor subtype 5 antagonists” (Bioorg Med Chem Lett, 2007).

Sequences of proteins named here, by UniProt entry; tags and fusion partners are left off.
UniProt P31424, whole entry: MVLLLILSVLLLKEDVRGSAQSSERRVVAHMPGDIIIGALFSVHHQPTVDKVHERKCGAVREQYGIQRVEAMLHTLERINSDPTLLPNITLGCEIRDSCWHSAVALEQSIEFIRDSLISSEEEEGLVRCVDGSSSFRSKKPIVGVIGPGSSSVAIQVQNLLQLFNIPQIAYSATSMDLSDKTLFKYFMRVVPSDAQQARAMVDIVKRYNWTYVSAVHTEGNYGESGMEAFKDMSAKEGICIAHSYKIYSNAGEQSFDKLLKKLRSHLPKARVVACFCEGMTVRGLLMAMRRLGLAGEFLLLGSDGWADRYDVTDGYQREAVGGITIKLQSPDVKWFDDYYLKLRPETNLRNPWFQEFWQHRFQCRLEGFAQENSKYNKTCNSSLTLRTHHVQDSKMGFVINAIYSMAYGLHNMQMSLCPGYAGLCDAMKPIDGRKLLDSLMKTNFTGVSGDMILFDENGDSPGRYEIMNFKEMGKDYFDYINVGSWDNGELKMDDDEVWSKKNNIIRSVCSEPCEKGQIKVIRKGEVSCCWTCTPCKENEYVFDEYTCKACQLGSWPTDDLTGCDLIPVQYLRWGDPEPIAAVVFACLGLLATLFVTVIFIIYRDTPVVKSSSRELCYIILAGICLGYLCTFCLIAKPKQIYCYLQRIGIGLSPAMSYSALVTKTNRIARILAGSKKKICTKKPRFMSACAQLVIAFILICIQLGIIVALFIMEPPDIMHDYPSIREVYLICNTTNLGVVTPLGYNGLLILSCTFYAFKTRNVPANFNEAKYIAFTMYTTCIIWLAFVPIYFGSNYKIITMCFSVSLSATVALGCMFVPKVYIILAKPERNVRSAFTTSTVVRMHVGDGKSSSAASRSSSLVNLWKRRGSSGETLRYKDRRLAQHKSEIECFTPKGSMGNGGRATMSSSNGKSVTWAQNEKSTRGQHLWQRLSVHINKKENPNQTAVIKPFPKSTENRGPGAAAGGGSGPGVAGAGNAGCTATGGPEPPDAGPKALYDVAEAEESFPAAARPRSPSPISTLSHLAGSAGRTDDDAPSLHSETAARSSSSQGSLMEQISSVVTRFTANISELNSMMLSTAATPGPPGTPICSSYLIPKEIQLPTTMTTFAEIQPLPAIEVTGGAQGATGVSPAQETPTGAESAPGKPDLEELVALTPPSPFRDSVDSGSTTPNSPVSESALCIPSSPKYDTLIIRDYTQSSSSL

The target of this assay is Metabotropic glutamate receptor 5 (Rattus norvegicus, UniProt P31424). Put plainly: Displacement of [3H]MPEP from mGluR5 in rat brain membrane. It counts as cell membranes. (In a radioligand displacement assay an active substance lowers the binding of a labelled ligand.)

As for `Cc1cccc(C#Cc2ccccc2)n1`, affinity was put at a Ki of 21 nM.
